# According to ChEMBL document CHEMBL1124120, “Mapping of the beta 2-adrenoceptor on Chang liver cells. Differences between high- and low-affinity receptor states” (J Med Chem, 1988):
# The chains behind the UniProt entries cited, without tags or fusion partners.
# UniProt Q28044, whole entry, looked up: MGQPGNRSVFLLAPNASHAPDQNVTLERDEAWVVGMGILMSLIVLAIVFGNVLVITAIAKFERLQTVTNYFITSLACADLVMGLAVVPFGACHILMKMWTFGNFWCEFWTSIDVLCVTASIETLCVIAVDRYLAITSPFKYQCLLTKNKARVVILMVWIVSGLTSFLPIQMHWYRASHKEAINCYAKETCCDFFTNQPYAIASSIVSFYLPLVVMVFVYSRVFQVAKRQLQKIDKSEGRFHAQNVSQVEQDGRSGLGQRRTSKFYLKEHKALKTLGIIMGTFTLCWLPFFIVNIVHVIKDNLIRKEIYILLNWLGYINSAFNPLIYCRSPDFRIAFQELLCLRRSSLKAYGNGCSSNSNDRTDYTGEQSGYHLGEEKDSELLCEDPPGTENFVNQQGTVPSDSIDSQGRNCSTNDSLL
# Experiments:
# [1] = target: Beta-2 adrenergic receptor (Homo sapiens) (UniProt P07550)
# [2] = target: Beta-2 adrenergic receptor (Bos taurus) (UniProt Q28044); conditions: Muscle tissue
# [3] = target: Beta-2 adrenergic receptor (Homo sapiens) (UniProt P07550); remark: listed apart in the source
smiles,measurement,setting,value
CC(C)(C)NCC(O)c1ccccc1Cl (centres undefined),-Delta G,[1],10.8
CC(C)NCC(O)c1ccc(O)c(CO)c1 (racemic),-Delta G,[2],8.23
CC(C)NCC(O)c1ccc(O)cc1 (racemic),-Delta G,[3],8.07
CC(C)NCC(O)c1cccc(O)c1 (racemic),-Delta G,[1],8.57
